## Apparent affinities of Ab-14 variants for a coronavirus HR2 peptide

All variants were tested on one target, the spike HR2 peptide PDVDLGDISGINAS (SARS-CoV-2).

Parent scFv Ab-14: VH joined to VL by a 15-residue (Gly4Ser)3 linker. Changes lie in the heavy chain CDRs alone.
VH: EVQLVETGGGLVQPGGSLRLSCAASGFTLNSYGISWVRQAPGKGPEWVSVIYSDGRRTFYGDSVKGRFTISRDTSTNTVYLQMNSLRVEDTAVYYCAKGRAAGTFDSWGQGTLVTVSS
VL: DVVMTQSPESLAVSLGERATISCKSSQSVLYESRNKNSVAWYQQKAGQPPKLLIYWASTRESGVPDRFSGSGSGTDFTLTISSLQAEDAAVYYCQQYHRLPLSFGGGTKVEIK

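The parent was found by panning a naive human phage display library on the peptide. The variants were designed computationally from a first round of random CDR variants and then made and measured. Their group label is 14H_GPLM_HC (GPLM: also part of the Gaussian process libraries; HC: hill climbing; a sequence that several methods proposed may carry one label only). The assay is AlphaSeq: two haploid yeast populations carry antibody and antigen on their surface. Mating (16 h, 30 °C) was followed by selection of diploids and sequencing of their barcodes. Each replicate has its own calibration line, from reference interactions of the BCL2 family. Each pool was mated in six replicate cultures.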

Substitutions are numbered in sequence along the VH above, starting at 1 (not Kabat).
Scale: log10 of Kd in nM, estimated from mating counts; low values are strong binders.
Averages over replicates are reported, and they cover detected replicates only.
Where no diploid with the target was found in that replicate, the entry reads "ND": below detection, most likely a poor binder, though not proof of it.

| changes | log10 Kd (nM) by replicate | log10 Kd (nM), mean | empty controls |
|---|---|---|---|
| S31Q+G61A+D106T | ND ND ND ND ND ND | ND | 0/18 |
| S31E+G61H+A101F+S107N | 2.80 0.69 1.06 0.52 2.17 0.96 | 1.37 | 0/18 |
| S31D+G61A+D106W | ND ND ND ND ND ND | ND | 0/18 |
| T28D+G61I+R100S | 0.11 0.40 0.28 0.19 0.25 0.15 | 0.23 | 0/18 |
| N30D+D106V+S107V | ND ND ND ND ND ND | ND | 0/18 |
| T28E+S31D+R100Q | 1.83 0.86 0.41 0.77 0.52 0.72 | 0.85 | 1/18 (1.91) |
| S31E+A101Y+D106I | ND ND ND ND ND ND | ND | 0/18 |
| G61S+S63D+R100K+A101T | 0.06 0.31 0.29 0.16 0.24 0.42 | 0.25 | 1/18 (0.88) |
| S31D+T58S+F59Q+G61I | 1.27 ND 1.36 ND 0.97 ND | 1.20 | 0/18 |
| R56K+G61I+A101Q | ND ND ND ND ND ND | ND | 0/18 |
| S31D+R56K+F59Q+G61I | 0.90 1.15 1.19 0.84 1.32 1.18 | 1.10 | 1/18 (2.32) |
| S31D+G61S+R100K+D106I | ND ND ND ND ND ND | ND | 0/18 |
| T28D+G61D | 0.30 0.33 0.02 0.29 0.72 0.42 | 0.35 | 0/18 |
| T28D+T104H+D106H | ND ND ND ND ND ND | ND | 0/18 |
| S31E+A101I+S107G | 0.82 0.89 0.16 0.62 0.29 0.19 | 0.49 | 0/18 |
| S31D+F59A | 0.08 -0.06 -0.16 -0.33 0.13 -0.08 | -0.07 | 0/18 |
| L29I+G61I | 1.82 ND ND 2.10 1.55 2.46 | 1.98 | 0/18 |
| S31E+G61A+A101F+D106S | 1.62 1.40 0.60 1.64 0.93 2.22 | 1.40 | 1/18 (1.68) |
| N30D+A101H | ND ND ND ND ND ND | ND | 0/18 |
| S31E+G61S+S107I | -1.37 -1.17 -1.32 -1.83 -1.03 -0.97 | -1.28 | 0/18 |
| S53A+F105N+D106K+S107I | 0.16 0.52 0.41 0.08 1.28 1.12 | 0.60 | 0/18 |
| G61S+R100G | ND ND ND ND ND ND | ND | 0/18 |
| G61Q+R100Q+A101E | 0.68 0.90 1.00 0.33 0.11 0.90 | 0.65 | 0/18 |
| S31E+R56S+G61T+A101L | 0.98 0.84 0.42 0.48 1.07 0.96 | 0.79 | 1/18 (2.14) |
| S31D+S107K | 0.79 1.28 0.83 1.08 1.19 0.97 | 1.02 | 2/18 (2.47) |
| G61D+S63R+R100Q+A101L | 0.67 1.16 1.32 1.22 0.77 1.42 | 1.09 | 0/18 |
| S31E+G61T+A101F+S107W | ND ND ND 0.23 ND 0.60 | 0.42 | 0/18 |
| T28R+S31E+R100Q+A101T | 0.28 0.11 0.45 0.48 -0.07 0.26 | 0.25 | 0/18 |
| S31E+R56Y+G103V+S107V | ND ND ND ND ND ND | ND | 0/18 |
| S31Q+R56K+G61A | 0.36 0.05 -0.11 0.18 0.04 0.16 | 0.12 | 0/18 |
| S31D+S107T | 1.26 0.33 0.78 0.08 0.09 0.73 | 0.54 | 1/18 (1.20) |
| G61S+A102G+G103V+S107T | ND ND ND ND ND ND | ND | 0/18 |
| S31E+G103L+S107L | ND ND ND ND ND ND | ND | 0/18 |
| T28S+S31E+A101I+S107G | 0.13 0.60 0.14 -0.23 -0.50 -0.62 | -0.08 | 0/18 |
| T28K+S31E+G103V+S107Q | 0.40 0.82 -0.21 -0.95 1.14 0.25 | 0.24 | 0/18 |
| T28S+S31D+A101C+D106I | 0.03 -0.06 -0.39 -0.30 -0.05 0.02 | -0.13 | 1/18 (1.57) |
| T28D+G103D+T104K | ND ND ND ND ND ND | ND | 0/18 |
| T28S+S31E+G61S+A101E | -0.19 -0.41 -0.65 -0.30 -0.44 -0.05 | -0.34 | 0/18 |
| S31D+S53A+R100K+D106I | -0.06 0.11 0.62 -0.40 -0.20 0.52 | 0.10 | 0/18 |
| T28S+S31E+G61K+A101F | 0.48 1.21 0.02 1.10 0.26 0.79 | 0.64 | 0/18 |
| S31E+G61S+A101F | 3.76 1.95 0.91 1.81 1.09 1.06 | 1.76 | 0/18 |
| T28Y+G61I+R100Q+A101L | ND ND ND ND ND ND | ND | 0/18 |
| T28D+S31Q+G61A | -0.30 -0.27 -0.18 -0.61 -0.63 -0.15 | -0.36 | 0/18 |
| T28D+T104F+D106W | ND ND ND ND ND ND | ND | 0/18 |
| T28N+G61D+R100Q+A101V | 0.17 0.80 -0.22 -0.42 ND 0.20 | 0.11 | 0/18 |
| N30M+G61K+R100Q+A101L | ND ND ND ND ND ND | ND | 0/18 |
| T28L+G61D+R100Q+A101L | 1.35 0.91 0.33 0.79 1.53 1.15 | 1.01 | 0/18 |
| S31E+R56I | 0.89 0.42 0.10 0.35 0.80 0.07 | 0.44 | 0/18 |
| S31E+R56I+G61T+A101F | ND -0.02 -0.78 -0.36 0.07 1.65 | 0.11 | 0/18 |

Picked from the list: the 8 lowest averages where every replicate gave a value.

changes	log10 Kd (nM) by replicate	log10 Kd (nM), mean	empty controls
S31E+G61S+S107I	-1.37 -1.17 -1.32 -1.83 -1.03 -0.97	-1.28	0/18
T28D+S31Q+G61A	-0.30 -0.27 -0.18 -0.61 -0.63 -0.15	-0.36	0/18
T28S+S31E+G61S+A101E	-0.19 -0.41 -0.65 -0.30 -0.44 -0.05	-0.34	0/18
T28S+S31D+A101C+D106I	0.03 -0.06 -0.39 -0.30 -0.05 0.02	-0.13	1/18 (1.57)
T28S+S31E+A101I+S107G	0.13 0.60 0.14 -0.23 -0.50 -0.62	-0.08	0/18
S31D+F59A	0.08 -0.06 -0.16 -0.33 0.13 -0.08	-0.07	0/18
S31D+S53A+R100K+D106I	-0.06 0.11 0.62 -0.40 -0.20 0.52	0.10	0/18
S31Q+R56K+G61A	0.36 0.05 -0.11 0.18 0.04 0.16	0.12	0/18

Background: pairings of all heavy chain designs with three empty control strains gave a value in 1% of cases (median 2.08, 5th percentile 0.84). Values in that range, when seen in few replicates, are hard to tell from nonspecific mating. The control count says in how many pairings with the empty strains this scFv gave a signal, with their mean in brackets.
Of ten entries with the parent sequence, four were seen in most replicates (averages 0.34 to 2.37), three in one and three in none, so single entries are noisy.
In the paper, a design with two or fewer of six values counts as a poor binder.
A sequence measured in both rounds can read differently, since the two assays cover different ranges.

Reference: Li et al. 2023, doi:10.1038/s41467-023-39022-2. File: FLAb, binding data.